# AlphaSeq binding of Ab-14 heavy chain variants to a spike HR2 peptide

From the AlphaSeq antibody data of Engelhart et al. 2022 (doi:10.1038/s41597-022-01779-4), copy in the FLAb collection.

Target: peptide PDVDLGDISGINAS, taken from heptad repeat 2 (HR2) of SARS-CoV-2 spike.

Each scFv is VH, the linker GGGGSGGGGSGGGGS, VL, as in the parent Ab-14, and differs from it in the CDRs of the heavy chain only.
VH: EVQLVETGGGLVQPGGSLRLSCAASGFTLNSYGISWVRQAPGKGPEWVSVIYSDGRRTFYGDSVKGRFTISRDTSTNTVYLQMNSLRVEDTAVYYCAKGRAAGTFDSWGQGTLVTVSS
VL: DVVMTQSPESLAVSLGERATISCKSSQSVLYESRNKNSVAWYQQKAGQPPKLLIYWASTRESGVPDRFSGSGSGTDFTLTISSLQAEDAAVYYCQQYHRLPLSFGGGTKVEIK

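The starting antibody came from a phage panning campaign against this peptide. Library AAYL49 holds single substitutions and randomly drawn double and triple substitutions in the CDRs. The scFvs were displayed on barcoded MATa yeast, the peptide on MATalpha yeast. The frequency of each diploid, read from paired DNA barcodes, reflects how well the two displayed proteins bind. A regression on co-assayed BCL2-family reference pairs converts the normalised counts of each replicate to an apparent Kd. Mating was done three times.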

Changes read parent residue, position, new residue, counted from the first residue of the VH shown. This list gathers variants with a substitution at S53 (VH, numbered from residue 1). Each Kd is an estimate from the mating assay, the geometric mean of the replicates in which the pair was seen; lower is stronger. "no signal" marks a missing value. The strain was present, yet no cells mated with the target were sequenced in any replicate, which points to weak or no binding. The list is sorted by this average, lowest first, undetected variants last. Three control strains display no target. For library AAYL49, 15% of the pairings with them gave a signal, with a median of 11 µM and one signal in twenty below 680 nM, so weak values seen in few replicates may be background.

For T28E S53P G103W, the assay gave 100 nM (3 of 3 replicates).
For Y32K S53A A102M, the assay gave 1.4 µM (3 of 3 replicates).
For S53L G55P T58L, the assay gave 1.6 µM (1 of 3 replicates).
For V50N S53Q Y60T, the assay gave 2.1 µM (2 of 3 replicates).
For F27Q S53T D106R, the assay gave 2.8 µM (3 of 3 replicates).
For S53P V64C, the assay gave 3.2 µM (3 of 3 replicates).
For T28D Y52G S53D, the assay gave 5.0 µM (2 of 3 replicates).
For Y32W V50S S53L, the assay gave 12 µM (2 of 3 replicates).
For I51N S53M R56W, the assay gave 14 µM (2 of 3 replicates).
For S53M D54W Y60H, the assay gave 29 µM (2 of 3 replicates).
For S53G D62S D106K, the assay gave 39 µM (3 of 3 replicates).
For S31R S53C G61L, the assay gave 62 µM (1 of 3 replicates).
For G26W I51A S53H, the assay gave 64 µM (1 of 3 replicates).
For S53L Y60K A102L, the assay gave 68 µM (1 of 3 replicates).
For S53M K65N, the assay gave 70 µM (1 of 3 replicates).
For S53K T58H S107T, the assay gave 88 µM (2 of 3 replicates).
For T28W S53L G99I, the assay gave 110 µM (1 of 3 replicates).
For T28P S53G D54I, the assay gave 130 µM (1 of 3 replicates).
For G33Y S53G, the assay gave 180 µM (1 of 3 replicates).
For G26W I34G S53T, the assay gave 390 µM (1 of 3 replicates).
For S53D Y60R, the assay gave no signal (0 of 3 replicates).
For S53G F105V, the assay gave no signal (0 of 3 replicates).
For I34S S53D D54E, the assay gave no signal (0 of 3 replicates).
For I51P S53R S63K, the assay gave no signal (0 of 3 replicates).
For G26Q S53N F105Y, the assay gave no signal (0 of 3 replicates).
For S53D R100I D106R, the assay gave no signal (0 of 3 replicates).
For F27H S53D, the assay gave no signal (0 of 3 replicates).
For N30R S53E R57H, the assay gave no signal (0 of 3 replicates).
For N30H I51V S53Y, the assay gave no signal (0 of 3 replicates).
For S53T G61Q G99A, the assay gave no signal (0 of 3 replicates).
For I51A S53I G103Q, the assay gave no signal (0 of 3 replicates).
For Y52C S53I D62P, the assay gave no signal (0 of 3 replicates).
For F27W S31P S53I, the assay gave no signal (0 of 3 replicates).
For S53D T58F S107A, the assay gave no signal (0 of 3 replicates).
For I51G S53Y K65T, the assay gave no signal (0 of 3 replicates).
For Y52Q S53H Y60I, the assay gave no signal (0 of 3 replicates).
For S53Q K65S G99H, the assay gave no signal (0 of 3 replicates).
For F27W N30S S53I, the assay gave no signal (0 of 3 replicates).
For S53Q G61K, the assay gave no signal (0 of 3 replicates).
For S53Q G55E, the assay gave no signal (0 of 3 replicates).

5 of these entries, quoted again:

{"changes": "S53D Y60R", "Kd": "no signal", "detected": "0 of 3"}
{"changes": "Y32K S53A A102M", "Kd": "1.4 µM", "detected": "3 of 3"}
{"changes": "F27W N30S S53I", "Kd": "no signal", "detected": "0 of 3"}
{"changes": "G26Q S53N F105Y", "Kd": "no signal", "detected": "0 of 3"}
{"changes": "N30R S53E R57H", "Kd": "no signal", "detected": "0 of 3"}